Patent US7829708B2, “Metabolically inert antifolates for treating disorders of abnormal cellular proliferation and inflammation” (Chelsea Therapeutics, Inc., priority 2004, dated 2010)

Protein sequences, listed by entry. Tags and fused reporters are not part of them. Lines headed by an entry give the natural chain unless they say otherwise; changes in a name come on top.
UniProt P04818: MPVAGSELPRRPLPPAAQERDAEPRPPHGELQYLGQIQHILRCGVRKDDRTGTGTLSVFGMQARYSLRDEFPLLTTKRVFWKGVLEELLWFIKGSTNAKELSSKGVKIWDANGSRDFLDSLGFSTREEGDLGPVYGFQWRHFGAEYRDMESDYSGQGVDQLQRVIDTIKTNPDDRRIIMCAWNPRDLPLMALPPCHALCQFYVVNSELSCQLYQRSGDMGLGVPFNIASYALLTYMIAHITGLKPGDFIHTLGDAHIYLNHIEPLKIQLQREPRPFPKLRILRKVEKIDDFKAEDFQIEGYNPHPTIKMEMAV

Legend:
human DHFR = target: T1, human DHFR (Homo sapiens, UniProt P00374); test: Inhibition of recombinant dihydrofolate reductase in vitro; format: biochemical; conditions: read-out: I50 (human DHFR)
T1 sequence (P00374 1-187): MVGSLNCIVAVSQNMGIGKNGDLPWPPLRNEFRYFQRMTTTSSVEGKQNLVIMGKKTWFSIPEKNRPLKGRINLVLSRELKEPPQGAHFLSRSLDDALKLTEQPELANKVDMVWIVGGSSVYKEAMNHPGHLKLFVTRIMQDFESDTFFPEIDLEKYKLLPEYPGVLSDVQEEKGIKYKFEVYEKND

Human TS = Human TS (Homo sapiens, UniProt P04818); test: Inhibition of recombinant thymidylate synthase in vitro; format: biochemical; conditions: read-out: I50 (Human TS)

Question: Which IC50 (human DHFR) does the source give for `Nc1nc2[nH]cc(CCc3ccc(C(=O)N[C@@H](CCC(=O)O)C(=O)O)cc3)c2c(=O)[nH]1` [MTA (LY-231514)] here?
Answer: 6.6 µM

Question: What about the IC50 (Human TS) of the same compound?
Answer: 11 µM
